This experiment has as its target T1, SynGUN4 (Synechocystis sp. PCC 6803, UniProt P72583).
T1 construct: gene sll0558; full length, residues 1-233; E. coli BL21(DE3)
Kind of experiment: tryptophan fluorescence quenching. The format is binding.

By UniProt entry, the sequences of proteins in these tests, tags left out. Where a name states a change or a piece, a line headed by the entry shows the natural chain unless it says otherwise.
UniProt P72583: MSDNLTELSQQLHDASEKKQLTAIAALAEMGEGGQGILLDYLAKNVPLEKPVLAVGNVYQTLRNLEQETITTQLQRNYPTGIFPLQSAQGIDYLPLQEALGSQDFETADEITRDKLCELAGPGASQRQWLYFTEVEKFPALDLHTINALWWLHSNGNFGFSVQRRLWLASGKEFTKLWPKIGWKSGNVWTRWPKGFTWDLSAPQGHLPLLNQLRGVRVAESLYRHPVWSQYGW

One molecule from PMC1084334, “Structure of the Mg-Chelatase Cofactor GUN4 Reveals a Novel Hand-Shaped Fold for Porphyrin Binding” (PLoS Biology, 2005) can be followed below.

What is called Kd is the constant that tells how readily two partners part at equilibrium. A higher Kd goes with weaker binding.

The molecule `C=CC1=C(C)C2=Cc3c(C=C)c(C)c4[n]3[Fe]([Cl])[n]3c(c(C)c(CCC(=O)O)c3=CC3=NC(=C4)C(C)=C3CCC(=O)O)=CC1=N2` [hemin] came in with a Kd of 4.73 ± 1.16 µM.
